The subject of test [1] is Mus musculus. Nature of the test: Antinociceptive activity against C57Bl/6N mouse model of thermal-induced nociception at 60 mg/kg, sc measured at 30 mins by tail-flick test. On the technique in general: In hot-plate and tail-flick tests a longer latency is read as antinociception.
For test [2], the target named is Delta-type opioid receptor (Homo sapiens, UniProt P41143). Kind of test: Displacement of [3H]-DADLE from delta opioid receptor (unknown origin) expressed in HEK cells at 10 uM. In kind it is cell-based. To be noted: filed as agonist.
Test [3] deals with Mus musculus. Nature of the test: Antinociceptive activity against C57Bl/6N mouse model of thermal-induced nociception at 30 mg/kg, sc measured at 60 mins by hot-plate test.
The test system of test [4] is Mus musculus. Kind of test: Antinociceptive activity against C57Bl/6N mouse model of thermal-induced nociception at 60 mg/kg, sc measured at 30 mins by hot-plate test.
Test [5] concerns Mus musculus. Nature of the test: Antinociceptive activity against C57Bl/6N mouse model of thermal-induced nociception at 3 mg/kg, sc measured at 110 mins by hot-plate test. The format is functional, organism-based.
The subject of test [6] is Mus musculus. Nature of the test: Antinociceptive activity against C57Bl/6N mouse model of thermal-induced nociception at 3 mg/kg, sc measured at 110 mins by tail-flick test.
The target in test [7] is Delta-type opioid receptor (Mus musculus) (UniProt P32300). Kind of test: Agonist activity at mouse FLAG-tagged delta opioid receptor expressed in HEK293 cells assessed as inhibition of forskolin-induced cAMP production preincubated for 20 mins followed by forskolin stimulation and measured after 15 mins by Glo-sensor reagent based assay relative to Leu-Enk. In kind it is functional, cell-based. Also on record: scale not given: the % may be the effect or the level left. To be noted: filed as agonist.

Protein sequences, listed by entry. Tags and fused reporters are not part of them. Lines headed by an entry give the natural chain unless they say otherwise; changes in a name come on top.
UniProt P41143, whole entry, looked up: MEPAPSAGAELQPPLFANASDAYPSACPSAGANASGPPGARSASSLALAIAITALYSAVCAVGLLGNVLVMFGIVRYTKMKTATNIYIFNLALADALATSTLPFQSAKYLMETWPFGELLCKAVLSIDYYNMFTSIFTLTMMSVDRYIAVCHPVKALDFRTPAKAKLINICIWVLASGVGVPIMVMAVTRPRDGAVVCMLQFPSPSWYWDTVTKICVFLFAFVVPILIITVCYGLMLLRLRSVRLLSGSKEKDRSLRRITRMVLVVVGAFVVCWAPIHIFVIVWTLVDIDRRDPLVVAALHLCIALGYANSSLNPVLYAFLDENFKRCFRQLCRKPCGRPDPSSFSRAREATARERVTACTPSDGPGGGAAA
UniProt P32300, whole entry, looked up: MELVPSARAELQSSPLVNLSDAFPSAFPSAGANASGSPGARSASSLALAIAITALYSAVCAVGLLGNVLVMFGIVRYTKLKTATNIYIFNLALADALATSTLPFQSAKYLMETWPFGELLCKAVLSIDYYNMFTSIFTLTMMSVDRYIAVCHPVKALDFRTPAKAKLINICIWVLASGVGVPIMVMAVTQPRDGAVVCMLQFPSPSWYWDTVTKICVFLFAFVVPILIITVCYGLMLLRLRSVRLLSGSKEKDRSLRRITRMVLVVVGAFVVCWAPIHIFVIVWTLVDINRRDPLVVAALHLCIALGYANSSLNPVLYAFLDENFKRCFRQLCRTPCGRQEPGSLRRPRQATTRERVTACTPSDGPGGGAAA
UniProt P33534: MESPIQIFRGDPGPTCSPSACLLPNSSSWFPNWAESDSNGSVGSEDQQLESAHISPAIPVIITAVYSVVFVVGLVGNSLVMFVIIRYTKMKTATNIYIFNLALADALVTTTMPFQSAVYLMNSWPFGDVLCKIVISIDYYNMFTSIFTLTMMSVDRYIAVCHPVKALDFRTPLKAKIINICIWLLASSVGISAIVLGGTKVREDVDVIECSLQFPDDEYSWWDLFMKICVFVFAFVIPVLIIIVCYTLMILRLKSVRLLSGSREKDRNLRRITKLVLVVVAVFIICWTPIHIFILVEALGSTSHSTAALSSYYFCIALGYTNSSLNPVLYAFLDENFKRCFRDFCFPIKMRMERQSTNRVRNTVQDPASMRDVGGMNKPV

The test system of test [8] is Mus musculus. Kind of test: Antinociceptive activity against C57Bl/6N mouse model of thermal-induced nociception at 5 mg/kg, sc measured after 30 to 60 mins by tail-flick test. To be noted: time 30-60 min.
Test [9] has as its system Mus musculus. Kind of test: Antinociceptive activity against C57Bl/6N mouse model of thermal-induced nociception at 5 mg/kg, po measured up to 120 mins by tail-flick test. To be noted: time min <=120.
The test system of test [10] is Mus musculus. Nature of the test: Antinociceptive activity against C57Bl/6N mouse model of thermal-induced nociception at 5 mg/kg, sc measured at 30 mins by hot-plate test.
Test [11] has as its system Mus musculus. Kind of test: Antinociceptive activity against C57Bl/6N mouse model of thermal-induced nociception at 10 mg/kg, sc measured at 30 mins by hot-plate test.
In test [12] the test system is Mus musculus. Kind of test: Antinociceptive activity against C57Bl/6N mouse model of thermal-induced nociception at 5 mg/kg, po measured up to 120 mins by hot-plate test. Particulars: time min <=120.
Test [13] concerns the target Kappa-type opioid receptor (Mus musculus) (UniProt P33534). Nature of the test: Agonist activity at mouse FLAG-tagged kappa opioid receptor expressed in HEK293 cells assessed as inhibition of forskolin-induced cAMP production preincubated for 20 mins followed by forskolin stimulation and measured after 15 mins by Glo-sensor reagent based assay relative to U50488. In kind it is functional, cell-based. Particulars: filed as agonist. Also on record: scale not given: the % may be the effect or the level left. (In general: Cyclic AMP is a second messenger, typically raised through Gs and lowered through Gi signalling.)

The test system of test [14] is Mus musculus. Kind of test: Antinociceptive activity against C57Bl/6N mouse model of thermal-induced nociception at 10 mg/kg, sc measured at 30 mins by tail-flick test.

The source made the active and inactive calls. The rule behind the calls is not given here.

In the case of `C/C=C1/CN2CC[C@@]34c5cc(O)ccc5N(C)[C@]35OC[C@@]4(C(=O)OC)[C@H]1C[C@H]25`, the result in [1], in [3], in test [4], in [5] and in [6] was Active. Further, the inhibition entry in test [2] was “Active”. Further, the Activity in [7] turned out to be 50%.
With `C/C=C1/CN2CC[C@@]34c5ccccc5N(C)[C@]35OC[C@@]4(C(=O)OC)[C@H]1C[C@H]25`, the outcome in test [8] and in [10] was Active. In addition, the result in [9], in [11], in test [12] and in [14] was inactive. Besides, the inhibition result in [2] was “Active”. The Activity in test [13] worked out at 69%.

The record behind these values is ChEMBL document CHEMBL4813924, “Isolation and Pharmacological Characterization of Six Opioidergic Picralima nitida Alkaloids” (J Nat Prod, 2021).
